Screening results from PubChem BioAssay.
This is a sample that favours compounds with a hit; in the whole collection about 1.3% have one here.
miR-122 sensor: miR-122 inhibition in Huh7 cells; Huh7 miR-122 Renilla luciferase sensor, 48 h; neutral wells = 0, positive control = 100; activation (reporter increase), % at 12.5 µM; actives 0.3% (n = 340,000); AID 602342;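 active = mean replicate activation score at least 90 and every replicate individually at or above 90; inconclusive = only one of the two criteria met; inactive = neither criterion met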;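 also: higher luciferase means less miR-122 activity so hits act as miR-122 inhibitors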
CFTR F508del cor: CFTR F508del correction in bronchial cells; AID 720511; actives 0.36% (n = 350,000); activity (quench increase), % at 7.58 µM; CFBE cells, YFP halide quenching; stimulated with forskolin plus potentiator P3; % fluorescence drop versus neutral controls;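 active = mean added fluorescence quench of at least 8% versus neutral control, with both replicates also reaching 8%; inconclusive = only one of the mean or replicate conditions met; inactive = mean below 8% and not both replicates reaching 8%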;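 also: cells transiently co-express mutant CFTR-F508del with the halide-sensitive YFP; corrector assay measuring rescue of mutant channel to the surface after 24 h compound exposure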
EWS-Fli inh: blocks EWS/Fli oncoprotein-driven transcription; A673 NR0B1-luciferase reporter, viability-normalised; inhibition, % at 12.6 µM; actives 0.67% (n = 350,000); AID 651661;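 active = mean inhibition of at least 50% after viability correction, with every replicate also passing that limit; inconclusive = mean reaches 50% but only one of two replicates passes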;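 also: firefly luciferase signal divided by Alamar Blue viability fluorescence both relative to DMSO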
PglD inh: blocks C. jejuni PglD acetyltransferase activity | purified PglD enzyme, DTNB colorimetric CoA detection | inhibition, % at 12.5 µM | actives 0.098% (n = 360,000) | AID 602405; in the data active = inhibition above about 16%, passing the limit was not always enough; inconclusive = no clear call, values can overlap the other calls
Yeast UUG start: yeast start codon fidelity modulation. S. cerevisiae UUG-firefly luciferase reporter, luminescence/redox ratio. activity score, % at 18.7 µM. 0.13% of 350,000 active;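 active means replicate mean at a twofold rise or more, about +100% in these data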;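 further: firefly luciferase made from a UUG start codon reports start codon fidelity; reporter light over untreated wells divided by growth signal over untreated wells; some hits fall short of that in this replicate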
LGR2 inh: inhibitors of bursicon-induced Drosophila LGR2 receptor cAMP signaling. HEK293 LGR2, CRE-luciferase, bursicon-stimulated, 4 h. inhibition, % at 9.99 µM. actives 0.35% (n = 380,000). AID 720647;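 active = drop in luminescence signal, shown as inhibition above about 50% in the replicate tests, limit read from the data, passing the limit was not always enough; inconclusive = probably only some replicates passing the limit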;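 also: agonist challenge used bursicon conditioned medium at about half maximal strength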
Large screens that a line does not name were inactive.

O=C(CCc1ccccc1)c1ccc2c(c1)OCCCO2	none (no result: CFTR F508del cor, EWS-Fli inh, LGR2 inh)
COc1ccc(CCNC(=O)c2ccc3c(c2)OCCO3)cc1	none (no result: miR-122 sensor, PglD inh, Yeast UUG start, LGR2 inh)
O=C(NCCc1ccccc1)c1ccc2c(c1)OCCCO2	EWS-Fli inh 89, LGR2 inh 102
O=C(NCCc1ccccc1)c1ccc2c(c1)OCCO2	EWS-Fli inh 90, LGR2 inh 102
O=C(CCCc1ccccc1)c1ccc2c(c1)OCCO2	EWS-Fli inh 86, LGR2 inh 101
COc1ccc([C@H]2CC(=O)C=C(c3ccc4ccn(C)c4c3)C2)cc1	none
O=C(Nc1cccc(C(=O)O)c1)Nc1ccc2c(c1)OCO2	EWS-Fli inh 79, LGR2 inh 97
COc1ccc(-c2csc(NC(C)=O)n2)cc1OC	none (no result: CFTR F508del cor, EWS-Fli inh, LGR2 inh)
COc1cccc(NC(=O)c2ccccc2)c1	none
COc1cccc(NC(=O)Nc2cccc(C(=O)O)c2)c1	EWS-Fli inh 75, LGR2 inh 97 (no result: PglD inh, Yeast UUG start)
COc1cccc(NC(=O)Nc2nc(-c3ccc(OC)c(OC)c3)cs2)c1	EWS-Fli inh 65, LGR2 inh inconclusive
COC(=O)[C@]1(Cc2ccccc2)N[C@H](CN(C)S(=O)(=O)c2ccc(OC)cc2)[C@@H]2C(=O)N(C)C(=O)[C@@H]21	none
COC(=O)c1cc2ccsc2n1CC(=O)NCC1CCCO1 (configuration not stated)	none (no result: miR-122 sensor)
O=S(=O)(c1ccc(NCCCO)nc1)N1CCOCC1	none (no result: miR-122 sensor)
CCCC(=O)N(Cc1cc(=O)[nH]c2ccccc12)c1ccc(OC)cc1	none (no result: miR-122 sensor, PglD inh, Yeast UUG start)
CCCC(=O)N(Cc1cc(=O)[nH]c2ccccc12)c1cccc(C)c1	none
Cc1cccc(N(Cc2cc(=O)[nH]c3ccccc23)C(=O)CCl)c1	EWS-Fli inh 61 (no result: miR-122 sensor, PglD inh, Yeast UUG start)
COc1ccc(N(Cc2cc(=O)[nH]c3ccccc23)C(=O)CCl)cc1	EWS-Fli inh 66
CCOc1ccc(S(=O)(=O)Nc2ccc(F)cc2)c(C)c1C	none (no result: CFTR F508del cor, EWS-Fli inh, LGR2 inh)
COc1cc(Nc2c3c(nc4ccccc24)CCC3)cc(OC)c1OC	CFTR F508del cor 8.6, EWS-Fli inh inconclusive
COc1ccc(OC)c(NC(=O)COC(=O)c2c3c(nc4ccccc24)CCCC3)c1	LGR2 inh 71
COc1ccc(NC(=O)COC(=O)c2c3c(nc4ccccc24)CCCC3)cc1	none (no result: CFTR F508del cor, EWS-Fli inh, LGR2 inh)
COc1ccc(OC)c(Nc2c3ccccc3nc3ccccc23)c1	none
COc1ccc(OC)c(Nc2c3c(nc4ccccc24)CCC3)c1	EWS-Fli inh 57
Cc1cccc(Nc2c3c(nc4ccccc24)CCC3)c1	none
C[C@H](CO)N1C[C@H](C)[C@@H](CN(C)Cc2ccc(F)cc2)OCc2ccccc2-c2ccccc2C1=O	none (no result: miR-122 sensor, Yeast UUG start)
Cc1ccccc1C(=O)N/N=C/c1ccccn1	LGR2 inh 57
COCCSc1ccccc1C(=O)Nc1ccc([N+](=O)[O-])cc1OC	none (no result: miR-122 sensor, PglD inh, Yeast UUG start)
COCCSc1ccccc1C(=O)Nc1cc([N+](=O)[O-])ccc1OC	CFTR F508del cor 18 (no result: miR-122 sensor, PglD inh, Yeast UUG start)
CCOC(=O)c1cc(-c2ccc(/C=N\n3cnnc3)o2)ccc1Cl	PglD inh 25 (no result: CFTR F508del cor, EWS-Fli inh, LGR2 inh)
CC1(C(=O)NCc2ccccc2)Cc2c(-c3ccccc3)ccnc2O1 (configuration not stated)	EWS-Fli inh 59
CC(=O)Nc1cccc(-c2ccnc3c2CC(C)(C(=O)NCc2cccc(Cl)c2)O3)c1 (configuration not stated)	none
CN(C)c1ccc(-c2ccnc3c2CC(C)(C(=O)NCc2ccncc2)O3)cc1 (configuration not stated)	none
CN(C)c1ccc(-c2ccnc3c2CC(C)(C(=O)NCc2ccccc2)O3)cc1 (configuration not stated)	EWS-Fli inh 61
CC(=O)Nc1cccc(-c2ccnc3c2CC(C)(C(=O)NCc2cccs2)O3)c1 (configuration not stated)	CFTR F508del cor 9.9, EWS-Fli inh 60 (no result: miR-122 sensor)
CC1(C(=O)NCc2ccccc2)Cc2c(-c3ccc(C(N)=O)cc3)ccnc2O1 (configuration not stated)	CFTR F508del cor 15, EWS-Fli inh 54
C[C@@H]1CN([C@H](C)CO)C(=O)c2cc(NC(=O)Nc3ccc(C(F)(F)F)cc3)ccc2O[C@@H]1CN(C)S(=O)(=O)c1ccc(Cl)cc1	none
Cc1nn(C(C)C)c(C)c1CN1CCCC(CCC(=O)NCc2ccccc2F)C1 (configuration not stated)	none (no result: miR-122 sensor, PglD inh, Yeast UUG start)
